# Experimental data taken from patent US9156877B2, “17-hydroxy-17-pentafluorethyl-estra-4,9(10)-dien-11-benzylidene derivatives, methods for the production thereof and use thereof for treating diseases” (Bayer Intellectual Property GmbH, priority 2009, dated 2015).
# Protein sequences, listed by entry. Tags and fused reporters are not part of them. Residues count along the entry.
# UniProt P06401, 165-933: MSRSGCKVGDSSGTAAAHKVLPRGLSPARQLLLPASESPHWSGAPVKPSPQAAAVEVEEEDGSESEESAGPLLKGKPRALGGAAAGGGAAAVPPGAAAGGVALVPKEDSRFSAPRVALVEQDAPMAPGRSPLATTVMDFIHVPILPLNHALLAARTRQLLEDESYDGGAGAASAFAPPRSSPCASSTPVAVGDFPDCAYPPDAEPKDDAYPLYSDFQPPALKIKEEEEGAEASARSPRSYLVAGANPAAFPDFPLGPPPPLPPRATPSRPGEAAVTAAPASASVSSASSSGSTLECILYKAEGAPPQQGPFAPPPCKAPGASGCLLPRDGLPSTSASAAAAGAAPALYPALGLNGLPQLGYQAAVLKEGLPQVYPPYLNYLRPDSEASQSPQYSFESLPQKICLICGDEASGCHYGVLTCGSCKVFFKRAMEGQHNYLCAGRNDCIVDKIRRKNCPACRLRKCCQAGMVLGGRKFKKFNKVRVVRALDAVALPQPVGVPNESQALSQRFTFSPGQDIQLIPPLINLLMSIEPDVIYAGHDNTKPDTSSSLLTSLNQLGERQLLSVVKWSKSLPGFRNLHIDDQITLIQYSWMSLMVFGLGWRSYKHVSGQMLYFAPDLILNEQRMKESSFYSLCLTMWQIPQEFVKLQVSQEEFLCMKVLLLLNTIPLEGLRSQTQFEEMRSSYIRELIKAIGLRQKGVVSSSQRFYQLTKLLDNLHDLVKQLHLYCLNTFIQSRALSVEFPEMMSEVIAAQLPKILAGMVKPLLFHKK
# UniProt P06401, whole entry: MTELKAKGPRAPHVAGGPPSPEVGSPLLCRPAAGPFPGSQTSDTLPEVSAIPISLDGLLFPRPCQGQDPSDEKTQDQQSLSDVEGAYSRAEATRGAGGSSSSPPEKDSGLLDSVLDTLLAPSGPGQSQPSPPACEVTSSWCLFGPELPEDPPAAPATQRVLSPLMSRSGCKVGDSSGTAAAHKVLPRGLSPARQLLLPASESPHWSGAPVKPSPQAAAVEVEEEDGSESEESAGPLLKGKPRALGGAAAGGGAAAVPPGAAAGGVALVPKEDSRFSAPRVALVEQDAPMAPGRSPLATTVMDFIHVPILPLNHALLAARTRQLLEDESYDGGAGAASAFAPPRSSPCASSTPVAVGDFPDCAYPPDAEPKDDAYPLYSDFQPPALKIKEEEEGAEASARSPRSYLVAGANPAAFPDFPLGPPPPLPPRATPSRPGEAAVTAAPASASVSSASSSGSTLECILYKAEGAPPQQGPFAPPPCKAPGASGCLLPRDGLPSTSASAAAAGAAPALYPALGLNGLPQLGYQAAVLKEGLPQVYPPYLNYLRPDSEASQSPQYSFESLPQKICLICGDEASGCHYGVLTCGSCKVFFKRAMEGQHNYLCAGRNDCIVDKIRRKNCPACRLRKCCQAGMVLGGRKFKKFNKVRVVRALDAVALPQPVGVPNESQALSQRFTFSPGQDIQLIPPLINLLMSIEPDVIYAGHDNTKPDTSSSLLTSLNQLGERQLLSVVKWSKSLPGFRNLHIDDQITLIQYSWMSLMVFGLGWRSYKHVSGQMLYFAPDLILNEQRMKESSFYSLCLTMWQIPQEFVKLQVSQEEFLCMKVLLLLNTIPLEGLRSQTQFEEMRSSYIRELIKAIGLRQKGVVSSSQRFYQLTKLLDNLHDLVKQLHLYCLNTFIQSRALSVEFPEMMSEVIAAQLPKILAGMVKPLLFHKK
# How the values were obtained:
# [1] = Solubility in aqueous medium at pH 7.4
# From the text: In addition, some compounds have an unusually good solubility, for this active ingredient class, in aqueous medium under physiological conditions (Table 2).
# [2] = Metabolic stability in human liver microsomes
# Procedure: (§1) Determination of Metabolic Stability in Human and Rat Liver Microsomes
# Isolated human liver microsomes (HLM) were used to assess the metabolic stability of compounds of general formula I.
# The incubations were conducted with 2.4 ml of HLM solution (protein content 0.5 mg/ml), 30 μl of the test compound (final concentration 1 μM) and 0.6 ml of the cofactor mixture (═NADPH-generating system composed of 3 IU glucose-6-phosphate dehydrogenase, 14.6 mg glucose-6-phosphate, 1.2 mg NADP) at 37° C. in 100 mM phosphate buffer at pH 7.4. Samples were taken at 6 time points (2-60 min) and precipitated with an equal volume of methanol, and the recovery of the test substances used in the supernatant was determined by LC-MS/MS analysis. The half-life of substance degradation determined therefrom was used to calculate what is called the intrinsic clearance of the substance in the liver microsome preparation. With the aid of this, together with various physiological parameters (human hepatic blood flow: 1.3 l*kg/h; specific liver weight (per kg of body weight): 21 g/kg; microsomal protein content: 40 mg/g of liver), in accordance with the well-stirred model, (metabolic) in vivo clearance in relation to phase I reactions was predicted. […]
# [3] = molecular target: human progesterone receptor B (Homo sapiens, UniProt P06401); assay: Progesterone receptor-antagonistic action in stably transfected SK-N-MC cells with MMTV-LUC reporter (PR-B); conditions: read-out: PR-B IC50, antagonistic potency against 0.1 nmol/l promegestone, 24 hours, luciferase
# Procedure: (§2) Determination of Progesterone Receptor-Antagonistic Action in Stable Transfectants of Human Neuroblastoma Cells (SK-N-MC Cells) with the Human Progesterone A or Progesterone B Receptor and an MN-LUC Reporter Construct
# (§3) SK-N-MC cells (human neuroblastoma cells) which have been stably transfected with plasmids expressing the human progesterone receptor B (pRChPR-B-neo) or the human progesterone receptor A (pRChPR-A-neo) and a reporter construct (pMMTV-LUC) were incubated for 24 hours either in the absence (negative control) or in the presence of ascending amounts of the particular test compound (0.01 nmol/l, 0.1 nmol/l, 1 nmol/l, 10 nmol/l, 100 nmol/l and […]), in order to determine the agonistic efficacy. As a positive control of the reporter gene induction, the cells were treated with the synthetic gestagen promegestone (0.01 nmol/l, 0.1 nmol/l, 1 nmol/l, 10 nmol/l, 100 nmol/l and […]). To determine the antagonistic activity, the cells were treated with 0.1 nmol/l promegestone and additionally with ascending amounts of the particular test compound (0.01 nmol/l, 0.1 nmol/l, 1 nmol/l, 10 nmol/l, 100 nmol/l and […]). The activity of the reporter gene LUC (LUC=luciferase) was determined in the cell lysates and measured as RLU (relative light units). All measurements are reported as % efficacy and as EC50 and IC50 concentrations.
# [4] = Metabolic stability in rat liver microsomes
# Procedure: as §1
# The incubations were conducted with 2.4 ml of HLM solution (protein content 0.5 mg/ml), 30 μl of the test compound (final concentration 1 μM) and 0.6 ml of the cofactor mixture (═NADPH-generating system composed of 3 IU glucose-6-phosphate dehydrogenase, 14.6 mg glucose-6-phosphate, 1.2 mg NADP) at 37° C. in 100 mM phosphate buffer at pH 7.4. Samples were taken at 6 time points (2-60 min) and precipitated with an equal volume of methanol, and the recovery of the test substances used in the supernatant was determined by LC-MS/MS analysis. The half-life of substance degradation determined therefrom was used to calculate what is called the intrinsic clearance of the substance in the liver microsome preparation. With the aid of this, together with various physiological parameters (human hepatic blood flow: 1.3 l*kg/h; specific liver weight (per kg of body weight): 21 g/kg; microsomal protein content: 40 mg/g of liver), in accordance with the well-stirred model, (metabolic) in vivo clearance in relation to phase I reactions was predicted. In addition, under the assumptions that (i) absorption of the test substance is 100%, and (ii) the first pass is completely reflected by liver microsome metabolism, a maximum oral bioavailability (Fmax) was calculated.
# [5] = molecular target: human progesterone receptor A (Homo sapiens, UniProt P06401); assay: Progesterone receptor-antagonistic action in stably transfected SK-N-MC cells with MMTV-LUC reporter (PR-A); conditions: read-out: PR-A IC50, antagonistic potency against 0.1 nmol/l promegestone, 24 hours, luciferase
# Procedure: as §2, §3
smiles,measurement,setting,value
C[C@]12C[C@H](c3ccc(/C=C/c4cccnc4)cc3)C3=C4CCC(=O)C=C4CC[C@H]3[C@@H]1CC[C@@]2(O)C(F)(F)C(F)(F)F,Solubility at pH 7.4 [mg/l],[1],6 mg/l
same,Predicted Fmax [%] (maximum oral bioavailability) Human,[2],71%
same,Predicted clearance [l/h/kg] Human,"[2]; 1 μM, well-stirred model",0.38 L/h/kg
same,IC50,[3],0.011 nM
same,Predicted Fmax [%] (maximum oral bioavailability) Rat,[4],79%
same,Predicted clearance [l/h/kg] Rat,[4]; well-stirred model,0.9 L/h/kg
same,IC50,[5],0.012 nM
